Results: patent US20110059910A1, “Novel aromatic fluoroglycoside derivatives, pharmaceuticals comprising said compounds and the use thereof” (SANOFI-AVENTIS, priority 2008, published 2011)

Amino acid sequences for entries named in this document (tags omitted).
UniProt P31639, whole entry: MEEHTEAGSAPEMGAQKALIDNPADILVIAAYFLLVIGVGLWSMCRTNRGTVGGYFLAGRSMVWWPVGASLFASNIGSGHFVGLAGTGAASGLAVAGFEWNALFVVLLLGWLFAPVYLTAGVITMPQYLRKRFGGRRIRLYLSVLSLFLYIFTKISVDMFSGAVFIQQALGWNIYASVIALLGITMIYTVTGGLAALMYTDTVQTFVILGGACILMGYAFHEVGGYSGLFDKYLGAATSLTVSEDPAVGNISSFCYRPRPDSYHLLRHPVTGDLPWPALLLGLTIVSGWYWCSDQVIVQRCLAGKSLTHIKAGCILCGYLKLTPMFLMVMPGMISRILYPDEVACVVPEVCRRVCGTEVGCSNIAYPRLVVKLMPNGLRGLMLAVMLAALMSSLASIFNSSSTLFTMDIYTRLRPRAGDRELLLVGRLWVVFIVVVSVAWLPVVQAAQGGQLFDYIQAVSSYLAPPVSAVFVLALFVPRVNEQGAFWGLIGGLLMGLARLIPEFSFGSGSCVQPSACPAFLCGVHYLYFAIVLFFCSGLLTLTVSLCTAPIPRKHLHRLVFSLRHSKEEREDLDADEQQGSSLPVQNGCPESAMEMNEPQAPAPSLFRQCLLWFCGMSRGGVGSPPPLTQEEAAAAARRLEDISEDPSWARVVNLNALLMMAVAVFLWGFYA
UniProt P13866, whole entry: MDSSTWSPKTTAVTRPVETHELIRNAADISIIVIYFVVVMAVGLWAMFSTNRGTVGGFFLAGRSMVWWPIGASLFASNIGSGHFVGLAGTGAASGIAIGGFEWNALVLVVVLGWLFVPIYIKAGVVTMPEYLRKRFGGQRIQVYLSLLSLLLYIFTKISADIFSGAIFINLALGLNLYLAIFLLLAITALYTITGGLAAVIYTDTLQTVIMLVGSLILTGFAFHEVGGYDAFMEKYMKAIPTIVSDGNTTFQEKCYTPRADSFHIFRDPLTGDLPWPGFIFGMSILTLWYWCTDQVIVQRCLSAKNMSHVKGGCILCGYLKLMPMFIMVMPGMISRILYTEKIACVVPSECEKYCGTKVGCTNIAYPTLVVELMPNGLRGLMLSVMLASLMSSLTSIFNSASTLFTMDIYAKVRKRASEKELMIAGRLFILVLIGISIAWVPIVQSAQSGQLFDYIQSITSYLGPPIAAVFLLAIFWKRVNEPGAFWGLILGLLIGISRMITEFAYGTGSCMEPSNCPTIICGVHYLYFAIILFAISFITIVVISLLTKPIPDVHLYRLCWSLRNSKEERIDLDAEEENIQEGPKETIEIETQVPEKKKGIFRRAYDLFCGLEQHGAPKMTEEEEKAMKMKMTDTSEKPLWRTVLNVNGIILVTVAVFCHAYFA

Tests used:
[1] = target: human sodium-dependent glucose transporter 2 (SGLT2, SLC5A2) (Homo sapiens, UniProt P31639); assay: Inhibition of the transport activity of human SGLT2 in vitro (α-MDG uptake in CHO-TRex-hSGLT2 cells); settings: read-out: IC50 SGLT2, 50 μM α-MDG, 120 min at 37° C.
From the text: Inhibition of the Transport Activity of the Human Sodium-Dependent Glucose Transporter 2 (SGLT2, SLC5A2) In Vitro
1. Cloning of an Expression Vector for Human SGLT2
The cDNA for human SGLT2 was introduced into the pcDNA4/TO vector (Invitrogen) by means of standard methods of molecular biology as described in Sambrook et al. (Molecular Cloning, A Laboratory Manual, Second Edition). […] Bases 21 to 2039 correspond to the complete coding region of human SGLT2.
2. Production of a Recombinant Cell Line with Inducible Expression of Human SGLT2
The expression vector for human SGLT2 was introduced into CHO-TREx cells (Invitrogen) by means of FuGene6 lipofection (Roche). […]
(§1) CHO-TRex-hSGLT2 cells were seeded in cell culture medium in a concentration of 50 000 cells per well in Cytostar-T scintillating 96-well plates (Amersham Biosciences) and cultivated for 24 h. […] After an incubation time of 120 min at 37° C., the reaction was stopped by adding 50 μl/well of 10 mM methyl-α-D-glucopyranoside in transport assay buffer (4° C.), and the radioactivity taken up into the cells was determined in a MicroBeta Scintillation Microplate Reader (Wallac).
The half-maximum inhibiting action of the test substances (IC50 value) was determined as follows: • 1. […] This is the measurement in the absence of substance, measured in sodium-containing transport assay buffer. • 2. […]

[2] = target: human sodium-dependent glucose transporter 1 (SGLT1, SLC5A1) (Homo sapiens, UniProt P13866); assay: Inhibition of the transport activity of human SGLT1 in vitro (α-MDG uptake in CHO-TRex-hSGLT1 cells); settings: read-out: IC50 SGLT1, 50 μM α-MDG, 30 min at room temperature
From the text: Inhibition of the Transport Activity of the Human Sodium-Dependent Glucose Transporter 1 (SGLT1, SLC5A1) In Vitro:
1. Cloning of an Expression Vector for Human SGLT1
The cDNA for human SGLT1 was introduced into the pcDNA4/TO vector (Invitrogen) by means of standard methods of molecular biology as described in Sambrook et al. (Molecular Cloning, A Laboratory Manual, Second Edition). […] Bases 11 to 2005 correspond to the complete coding region of human SGLT1.
2. Production of a Recombinant Cell Line with Inducible Expression of Human SGLT1
The expression vector for human SGLT1 was introduced into CHO-TRex cells (Invitrogen) by means of FuGene6 lipofection (Roche). […]
as §1, with “CHO-TRex-hSGLT1” for “CHO-TRex-hSGLT2”, “30” for “120”, “room temperature,” for “37° C.,”
The half-maximum inhibiting action of the test substances (IC50 value) was determined as follows: • 4. […] This is the measurement in the absence of substance, measured in sodium-containing transport assay buffer. • 5. […]

Row | SMILES | IC50 [1] | IC50 [2]
1 | COc1ccc(Cc2cc([C@@H]3O[C@H](CO)[C@@H](F)[C@H](O)[C@H]3O)ccc2Cl)cn1 | 295 nM | 3700 nM
2 | COc1ccc(Cc2cc([C@@H]3O[C@H](CO)[C@@H](F)[C@H](O)[C@H]3O)ccc2C)cc1 | 7.9 nM | 459 nM
